US20060189679A1, “C10 cyclopropyl ester substituted taxane compositions” (priority 2005, published 2006)

Legend:
[1] = test system: SW480 human colon carcinoma xenografts; assay: SW480 human tumor xenograft study (e11) in nude mice
[2] = test system: Panc-1 human pancreatic tumor xenografts; assay: Panc-1 human tumor xenograft studies in nude mice

**Q.** With `CC(=O)O[C@@]12CO[C@@H]1C[C@H](O)[C@@]1(C)C(=O)[C@H](OC(=O)C3CC3)C3=C(C)[C@@H](OC(=O)[C@H](O)[C@@H](NC(=O)OCC(C)C)c4ccco4)C[C@@](O)([C@@H](OC(=O)c4ccccc4)C12)C3(C)C` (some centres unmarked) [Compound 3102] as the compound, how does the “# Death NTR (Non-Treatment Related)” value ([1]; 30 mg/kg IV Q4D × 4) read?
**A.** 0

**Q.** What about the “# Death TR (Treatment Related)” value ([1]; 30 mg/kg IV Q4D × 4) of the same compound?
**A.** 0

**Q.** What about the “Day of Max. % BW Loss” value ([1]; 30 mg/kg IV Q4D × 4) of the same compound?
**A.** Day 22

**Q.** What about the “MDS to 2.0 g ± SEM(n)” value ([1]; 30 mg/kg IV Q4D × 4) of the same compound?
**A.** 32.6 ± 4.3

**Q.** And the “Max. % BW Loss” value ([1]; 30 mg/kg IV Q4D × 4)?
**A.** −20.1%;

**Q.** What about the “# Death NTR (Non-Treatment Related)” value ([1]; 50 mg/kg PO Q4D × 4) of the same compound?
**A.** 0

**Q.** And the “# Death TR (Treatment Related)” value ([1]; 50 mg/kg PO Q4D × 4)?
**A.** 0

**Q.** What about the “Day of Max. % BW Loss” value ([1]; 50 mg/kg PO Q4D × 4) of the same compound?
**A.** Day 15

**Q.** What about the “MDS to 2.0 g ± SEM(n)” value ([1]; 50 mg/kg PO Q4D × 4) of the same compound?
**A.** 32.3 ± 3.1

**Q.** And the “Max. % BW Loss” value ([1]; 50 mg/kg PO Q4D × 4)?
**A.** −19.3%;

**Q.** And the “# Death NTR (Non-Treatment Related)” value ([1]; 70 mg/kg PO Q4D × 4)?
**A.** 1

**Q.** What about the “# Death TR (Treatment Related)” value ([1]; 70 mg/kg PO Q4D × 4) of the same compound?
**A.** 0

**Q.** And the “Day of Max. % BW Loss” value ([1]; 70 mg/kg PO Q4D × 4)?
**A.** Day 19

**Q.** What about the “MDS to 2.0 g ± SEM(n)” value ([1]; 70 mg/kg PO Q4D × 4) of the same compound?
**A.** 29.0 ± 3.8

**Q.** And the “Max. % BW Loss” value ([1]; 70 mg/kg PO Q4D × 4)?
**A.** −18.1%;

**Q.** And the “# Death NTR (Non-Treatment Related)” value ([1]; 90 mg/kg PO Q4D × 4)?
**A.** 0

**Q.** And the “# Death TR (Treatment Related)” value ([1]; 90 mg/kg PO Q4D × 4)?
**A.** 0

**Q.** What about the “Day of Max. % BW Loss” value ([1]; 90 mg/kg PO Q4D × 4) of the same compound?
**A.** Day 15

**Q.** What about the “MDS to 2.0 g ± SEM(n)” value ([1]; 90 mg/kg PO Q4D × 4) of the same compound?
**A.** 40.7 ± 1.3

**Q.** What about the “Max. % BW Loss” value ([1]; 90 mg/kg PO Q4D × 4) of the same compound?
**A.** −23.6%;

**Q.** What about the “# Death NTR” value ([2]; Panc-e79, 30 mg/kg PO Q4D × 4) of the same compound?
**A.** 0

**Q.** What about the “# Death TR” value ([2]; Panc-e79, 30 mg/kg PO Q4D × 4) of the same compound?
**A.** 0

**Q.** What about the “#CR” value ([2]; Panc-e79, 30 mg/kg PO Q4D × 4) of the same compound?
**A.** 0

**Q.** What about the “#PR” value ([2]; Panc-e79, 30 mg/kg PO Q4D × 4) of the same compound?
**A.** 1

**Q.** What about the “#SD/PD” value ([2]; Panc-e79, 30 mg/kg PO Q4D × 4) of the same compound?
**A.** 3

**Q.** And the “MDS to 1.2 g ± SEM (n)” value ([2]; Panc-e79, 30 mg/kg PO Q4D × 4)?
**A.** 32.0 ± 2.7 (2) days

**Q.** And the “Max. % BW Loss; Day” value ([2]; Panc-e79, 30 mg/kg PO Q4D × 4, Day 15)?
**A.** −0.4%;

**Q.** And the “# Death NTR” value ([2]; Panc-e79, 45 mg/kg PO Q4D × 4)?
**A.** 0

**Q.** And the “# Death TR” value ([2]; Panc-e79, 45 mg/kg PO Q4D × 4)?
**A.** 0

**Q.** And the “#CR” value ([2]; Panc-e79, 45 mg/kg PO Q4D × 4)?
**A.** 0

**Q.** And the “#PR” value ([2]; Panc-e79, 45 mg/kg PO Q4D × 4)?
**A.** 6

**Q.** And the “#SD/PD” value ([2]; Panc-e79, 45 mg/kg PO Q4D × 4)?
**A.** 0

**Q.** What about the “Max. % BW Loss; Day” value ([2]; Panc-e79, 45 mg/kg PO Q4D × 4, Day 15) of the same compound?
**A.** −6.7%;

**Q.** And the “#PR” value ([2]; Panc-e79, 45 mg/kg PO Q4D × 4, listed as compound 3102)?
**A.** 6/6

**Q.** And the “# Death NTR” value ([2]; Panc-e79, 60 mg/kg PO Q4D × 4)?
**A.** 0

**Q.** What about the “# Death TR” value ([2]; Panc-e79, 60 mg/kg PO Q4D × 4) of the same compound?
**A.** 0

**Q.** What about the “#CR” value ([2]; Panc-e79, 60 mg/kg PO Q4D × 4) of the same compound?
**A.** 0

**Q.** What about the “#PR” value ([2]; Panc-e79, 60 mg/kg PO Q4D × 4) of the same compound?
**A.** 6

**Q.** What about the “#SD/PD” value ([2]; Panc-e79, 60 mg/kg PO Q4D × 4) of the same compound?
**A.** 0

**Q.** What about the “Max. % BW Loss; Day” value ([2]; Panc-e79, 60 mg/kg PO Q4D × 4, Day 15) of the same compound?
**A.** −11.1%;

**Q.** And the “Max. % BW Loss; Day” value ([2]; Panc-e79, 60 mg/kg PO Q4D × 4, Day 15, listed as compound 3102)?
**A.** −11.1%

**Q.** What about the “#PR” value ([2]; Panc-e79, 60 mg/kg PO Q4D × 4, listed as compound 3102) of the same compound?
**A.** 6/6

**Q.** And the “# Death NTR” value ([2]; Panc-e87, 50 mg/kg PO Q4D × 4)?
**A.** 0

**Q.** What about the “# Death TR” value ([2]; Panc-e87, 50 mg/kg PO Q4D × 4) of the same compound?
**A.** 0

**Q.** What about the “#CR” value ([2]; Panc-e87, 50 mg/kg PO Q4D × 4) of the same compound?
**A.** 0

**Q.** What about the “#PR” value ([2]; Panc-e87, 50 mg/kg PO Q4D × 4) of the same compound?
**A.** 6

**Q.** And the “#SD/PD” value ([2]; Panc-e87, 50 mg/kg PO Q4D × 4)?
**A.** 0

**Q.** What about the “Max. % BW Loss; Day” value ([2]; Panc-e87, 50 mg/kg PO Q4D × 4, Day 12) of the same compound?
**A.** −1.4%;

**Q.** What about the “#PR” value ([2]; Panc-e87, 50 mg/kg PO Q4D × 4, listed as compound 3102) of the same compound?
**A.** 6/6

**Q.** And the “# Death NTR” value ([2]; Panc-e87, 60 mg/kg PO Q4D × 4)?
**A.** 0

**Q.** What about the “# Death TR” value ([2]; Panc-e87, 60 mg/kg PO Q4D × 4) of the same compound?
**A.** 0

**Q.** What about the “#CR” value ([2]; Panc-e87, 60 mg/kg PO Q4D × 4) of the same compound?
**A.** 0

**Q.** And the “#PR” value ([2]; Panc-e87, 60 mg/kg PO Q4D × 4)?
**A.** 6

**Q.** And the “#SD/PD” value ([2]; Panc-e87, 60 mg/kg PO Q4D × 4)?
**A.** 0

**Q.** What about the “Max. % BW Loss; Day” value ([2]; Panc-e87, 60 mg/kg PO Q4D × 4, Day 12) of the same compound?
**A.** −2.7%;

**Q.** What about the “#PR” value ([2]; Panc-e87, 60 mg/kg PO Q4D × 4, listed as compound 3102) of the same compound?
**A.** 6/6

**Q.** What about the “# Death NTR” value ([2]; Panc-e87, 70 mg/kg PO Q4D × 4) of the same compound?
**A.** 0

**Q.** And the “# Death TR” value ([2]; Panc-e87, 70 mg/kg PO Q4D × 4)?
**A.** 0

**Q.** What about the “#CR” value ([2]; Panc-e87, 70 mg/kg PO Q4D × 4) of the same compound?
**A.** 1

**Q.** And the “#PR” value ([2]; Panc-e87, 70 mg/kg PO Q4D × 4)?
**A.** 5

**Q.** What about the “#SD/PD” value ([2]; Panc-e87, 70 mg/kg PO Q4D × 4) of the same compound?
**A.** 0

**Q.** And the “Max. % BW Loss; Day” value ([2]; Panc-e87, 70 mg/kg PO Q4D × 4, Day 12)?
**A.** −9.9%;

**Q.** What about the “Max. % BW Loss; Day” value ([2]; Panc-e87, 70 mg/kg PO Q4D × 4, Day 12, listed as compound 3102) of the same compound?
**A.** −9.9%

**Q.** And the “# Death NTR” value ([2]; Panc-e92, 25 mg/kg IV Q4D × 4)?
**A.** 0

**Q.** And the “# Death TR” value ([2]; Panc-e92, 25 mg/kg IV Q4D × 4)?
**A.** 0

**Q.** What about the “#CR” value ([2]; Panc-e92, 25 mg/kg IV Q4D × 4) of the same compound?
**A.** 1

**Q.** What about the “#PR” value ([2]; Panc-e92, 25 mg/kg IV Q4D × 4) of the same compound?
**A.** 5

**Q.** What about the “#SD/PD” value ([2]; Panc-e92, 25 mg/kg IV Q4D × 4) of the same compound?
**A.** 0

**Q.** What about the “Max. % BW Loss; Day” value ([2]; Panc-e92, 25 mg/kg IV Q4D × 4, Day 18) of the same compound?
**A.** −6.1%;

**Q.** And the “# Death NTR” value ([2]; Panc-e92, 30 mg/kg IV Q4D × 4)?
**A.** 0

**Q.** And the “# Death TR” value ([2]; Panc-e92, 30 mg/kg IV Q4D × 4)?
**A.** 0

**Q.** What about the “#CR” value ([2]; Panc-e92, 30 mg/kg IV Q4D × 4) of the same compound?
**A.** 1

**Q.** What about the “#PR” value ([2]; Panc-e92, 30 mg/kg IV Q4D × 4) of the same compound?
**A.** 5

**Q.** What about the “#SD/PD” value ([2]; Panc-e92, 30 mg/kg IV Q4D × 4) of the same compound?
**A.** 0

**Q.** And the “Max. % BW Loss; Day” value ([2]; Panc-e92, 30 mg/kg IV Q4D × 4, Day 18)?
**A.** −6.0%;

**Q.** And the “# Death NTR” value ([2]; Panc-e95, 15 mg/kg PO Q7D × 3)?
**A.** 0

**Q.** What about the “# Death TR” value ([2]; Panc-e95, 15 mg/kg PO Q7D × 3) of the same compound?
**A.** 0
